Source: patent US20120148530A1, “Method for the treatment or prevention of virus infection using polybiguanide-based compounds” (Novaflux Biosciences, Inc., priority 2003, published 2012)

Tested on: P4R5 cells
Assay: P4R5 cell viability, MTT
Conditions: P4-R5 cells
From the text: To build on the information provided by the monomeric biguanide data a series of polybiguanide molecules were synthesized with varied linker length as described in Example 1. In these molecules the methylene spacer arms between the biguanide functionalities (X and Y in Forumla I) have been changed.
As described above the effect of PEHMB and related compounds on P4R5 cell viability after a two-hour exposure to the compound was compared to the effects of control compounds such as N-9. […] To further evaluate the effect of this class of compound on various types of cells (in particular PEHMB P4-R5 cells, ME-180 cells (ATCC HTB-33; cervical epidermoid carcinoma), VK2/E6E7 human vaginal cell line (Fichorova et al. 1997 Biol. Reprod. 57:847-855), and human primary vaginal karatinocytes (isolated from tissues obtained from vaginal reconstructive surgery)) the compounds were incubated with the different cells for various lengths of time before assessment of cell viability.

dextran sulfate
CC50 % 10 minute exposure (10 minute exposure): ~2.0% | CC50 % 2 hr exposure (2 hr exposure): >1.0%
